Measurements as given in patent US8071548B2, “Method of reducing injury to mammalian cells” (Nono, Inc., priority 2002, dated 2011).

System: cultured cortical neurons
Experiment: NO donor toxicity in cortical cultures

sodium nitroprusside
vulnerability of stretched versus unstretched cultures to NO donor (300 μM): increased vulnerability to SNP
NO donor toxicity (irrespective of PSD-95 deficiency): highly toxic
EC50 (read-out: NO donor toxicity EC50, irrespective of PSD-95 deficiency): 300 µM

Only a part of the results on these compounds is given; other tests are left out.
